Data: article PMC2690590, “Functional recombinant MHC class II molecules and high-throughput peptide-binding assays” (Immunome Research, 2009)

By UniProt entry, the sequences of proteins in these tests, tags left out. Chains listed by the source or under a name are the forms on record and can include a tag or linker.
UniProt P01920, with tags, fused parts or gaps with the stated changes: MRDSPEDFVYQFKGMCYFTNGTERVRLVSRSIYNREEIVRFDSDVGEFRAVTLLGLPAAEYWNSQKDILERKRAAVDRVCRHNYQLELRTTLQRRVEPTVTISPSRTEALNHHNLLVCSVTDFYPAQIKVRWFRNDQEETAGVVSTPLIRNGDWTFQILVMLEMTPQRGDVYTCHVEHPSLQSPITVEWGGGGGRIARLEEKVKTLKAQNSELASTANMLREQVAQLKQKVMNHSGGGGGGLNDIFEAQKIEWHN

target: T1, DQA1*0501/DQB1*0201 (Homo sapiens, UniProt P01909+P01920, C70S); test: Direct LOCI peptide-MHC-II binding assay, DQA1*0501/DQB1*0201
T1 construct: HAT-DQA1*05011-181(C47S)LZFos; DQB1*0201LZ1-190JunBSP; made in house

Compound | Kd [µM]
CC[C@H](C)[C@H](NC(=O)[C@H](Cc1c[nH]cn1)NC(=O)[C@H](Cc1c[nH]cn1)NC(=O)[C@H](Cc1c[nH]cn1)NC(=O)[C@H](Cc1c[nH]cn1)NC(=O)[C@H](Cc1c[nH]cn1)NC(=O)[C@@H](N)Cc1c[nH]cn1)C(=O)N[C@@H](CCC(=O)O)C(=O)NCC(=O)N[C@@H](CCCNC(=N)N)C(=O)N[C@@H](Cc1ccccc1)C(=O)N[C@@H](C)C(=O)N[C@@H](C)C(=O)N[C@@H](CC(C)C)C(=O)N[C@@H](Cc1c[nH]c2ccccc12)C(=O)N[C@@H](Cc1ccccc1)C(=O)N[C@@H](CCCNC(=N)N)C(=O)N[C@@H](CC(N)=O)C(=O)N[C@@H](Cc1c[nH]cn1)C(=O)N[C@@H](Cc1ccccc1)C(=O)N[C@H](C(=O)N[C@@H](Cc1ccccc1)C(=O)NCC(=O)NCC(=O)NCC(=O)N[C@H](C(=O)N[C@@H](CCCCN)C(=O)O)[C@@H](C)O)C(C)C [6xH Lambda 2(315)] | > 5
CC[C@H](C)[C@H](N)C(=O)N[C@@H](CCC(N)=O)C(=O)N[C@@H](CCSC)C(=O)N[C@@H](CC(C)C)C(=O)N[C@@H](CCCCN)C(=O)N[C@@H](CC(N)=O)C(=O)NCC(=O)N[C@@H](CCCCN)C(=O)N[C@@H](CCCCN)C(=O)N[C@H](C(=O)N1CCC[C@H]1C(=O)N[C@@H](CCCCN)C(=O)N[C@H](C(=O)N[C@@H](CCC(=O)O)C(=O)N[C@@H](CCSC)C(=O)N[C@@H](CO)C(=O)O)C(C)C)[C@@H](C)CC [Murine β2m] | > 5
CC[C@H](C)[C@H](NC(=O)[C@H](CC(C)C)NC(=O)[C@H](Cc1ccccc1)NC(=O)[C@H](C)NC(=O)[C@H](CC(C)C)NC(=O)[C@H](CC(=O)O)NC(=O)[C@@H](NC(=O)[C@H](CC(C)C)NC(=O)[C@@H](N)Cc1ccccc1)[C@@H](C)CC)C(=O)O [Pox.o42.con A2] | > 5
CC[C@H](C)[C@H](NC(=O)[C@H](CC(N)=O)NC(=O)[C@H](CCC(N)=O)NC(=O)[C@@H](NC(=O)[C@@H](NC(=O)[C@@H]1CCCN1)[C@@H](C)CC)C(C)C)C(=O)N[C@@H](CCC(N)=O)C(=O)NCC(=O)N[C@@H](CCC(N)=O)C(=O)N[C@@H](CCSC)C(=O)N[C@H](C(=O)N[C@@H](Cc1c[nH]cn1)C(=O)N[C@@H](CCC(N)=O)C(=O)O)C(C)C [HIV] | > 5
CC(C)C[C@H](NC(=O)[C@H](CCCCN)NC(=O)[C@H](CC(C)C)NC(=O)[C@@H](NC(=O)[C@H](CC(N)=O)NC(=O)[C@H](CCC(N)=O)NC(=O)[C@H](CCCCN)NC(=O)[C@@H](NC(=O)[C@H](Cc1ccc(O)cc1)NC(=O)[C@H](CCCCN)NC(=O)[C@@H](N)Cc1ccc(O)cc1)C(C)C)[C@@H](C)O)C(=O)N[C@@H](C)C(=O)N[C@H](C(=O)O)[C@@H](C)O [HA306-318] | > 5
CC[C@H](C)[C@H](NC(=O)[C@H](CCC(=O)O)NC(=O)[C@H](Cc1ccc(O)cc1)NC(=O)[C@@H](NC(=O)[C@@H](NC(=O)CN)C(C)C)[C@@H](C)O)C(=O)N[C@@H](CC(=O)O)C(=O)N[C@@H](CC(C)C)C(=O)N[C@H](C(=O)N[C@@H](CC(N)=O)C(=O)N[C@@H](CCCCN)C(=O)N[C@@H](CC(N)=O)C(=O)O)[C@@H](C)O [Mycobact leprea] | > 5
CC[C@H](C)[C@H](NC(=O)[C@H](Cc1c[nH]cn1)NC(=O)[C@H](Cc1c[nH]cn1)NC(=O)[C@H](Cc1c[nH]cn1)NC(=O)[C@H](Cc1c[nH]cn1)NC(=O)[C@H](Cc1c[nH]cn1)NC(=O)[C@H](Cc1c[nH]cn1)NC(=O)[C@@H](N)Cc1ccc(O)cc1)C(=O)N[C@@H](CCC(=O)O)C(=O)NCC(=O)N[C@@H](CCCNC(=N)N)C(=O)N[C@@H](CO)C(=O)N[C@@H](Cc1ccccc1)C(=O)N[C@@H](CCC(=O)O)C(=O)N[C@@H](CCCNC(=N)N)C(=O)N[C@@H](Cc1ccccc1)C(=O)N[C@@H](CCC(=O)O)C(=O)N[C@H](C(=O)N[C@@H](Cc1ccccc1)C(=O)N1CCC[C@H]1C(=O)N[C@@H](CCCCN)C(=O)N[C@@H](CCC(=O)O)C(=O)O)[C@@H](C)CC [6xH Influenza A (PR8) HA 109–119] | 3.91
CC(C)C[C@H](NC(=O)CNC(=O)[C@H](Cc1c[nH]c2ccccc12)NC(=O)CNC(=O)[C@@H](NC(=O)[C@@H]1CCCN1C(=O)[C@@H](NC(=O)[C@H](C)NC(=O)[C@H](CC(=O)O)NC(=O)[C@H](C)NC(=O)[C@H](Cc1ccccc1)NC(=O)[C@@H](NC(=O)[C@H](CCC(N)=O)NC(=O)[C@H](CS)NC(=O)[C@H](CC(C)C)NC(=O)[C@@H](N)Cc1ccc(O)cc1)C(C)C)[C@@H](C)O)[C@@H](C)O)C(=O)O | 1.34
CC[C@H](C)[C@H](N)C(=O)N[C@H](C(=O)N[C@@H](Cc1ccccc1)C(=O)N[C@@H](CCSC)C(=O)N[C@@H](Cc1c[nH]c2ccccc12)C(=O)N[C@@H](C)C(=O)N[C@H](C(=O)N[C@@H](Cc1c[nH]cn1)C(=O)N[C@@H](Cc1c[nH]cn1)C(=O)O)[C@@H](C)CC)C(C)C [Flu HA1194-202] | > 5
CC[C@H](C)[C@H](NC(=O)[C@H](Cc1ccccc1)NC(=O)[C@@H]1CCCN1C(=O)[C@@H](N)Cc1ccc(O)cc1)C(=O)N[C@@H](CCC(=O)O)C(=O)N[C@@H](CCC(N)=O)C(=O)N[C@@H](CCC(=O)O)C(=O)NCC(=O)N1CCC[C@H]1C(=O)N[C@@H](CCC(=O)O)C(=O)N[C@@H](Cc1ccccc1)C(=O)N[C@@H](Cc1ccccc1)C(=O)N[C@@H](CC(=O)O)C(=O)N[C@@H](CCC(N)=O)C(=O)N[C@@H](CCC(=O)O)C(=O)O | 0.648
CC[C@H](C)[C@H](NC(=O)[C@@H](N)Cc1ccc(O)cc1)C(=O)N[C@@H](CC(C)C)C(=O)N[C@@H](Cc1ccccc1)C(=O)N[C@@H](CC(C)C)C(=O)N[C@H](C(=O)N[C@@H](CCCCN)C(=O)N[C@@H](CCSC)C(=O)N[C@@H](CC(N)=O)C(=O)N[C@@H](C)C(=O)N[C@@H](CC(C)C)C(=O)N[C@@H](CCCNC(=N)N)C(=O)N[C@@H](CCCNC(=N)N)C(=O)N[C@@H](CC(C)C)C(=O)N1CCC[C@H]1C(=O)N[C@H](C(=O)O)C(C)C)C(C)C | > 5
CC[C@H](C)[C@H](NC(=O)[C@@H](N)CCCCN)C(=O)N[C@@H](CC(C)C)C(=O)N[C@@H](CCC(=O)O)C(=O)N1CCC[C@H]1C(=O)N[C@@H](Cc1ccccc1)C(=O)N[C@@H](CCCNC(=N)N)C(=O)N[C@@H](CCCCN)C(=O)N[C@@H](Cc1ccc(O)cc1)C(=O)N[C@H](C(=O)N[C@@H](C)C(=O)N[C@@H](Cc1ccccc1)C(=O)N[C@H](C(=O)N[C@H](C(=O)N1CCC[C@H]1C(=O)O)[C@@H](C)CC)[C@@H](C)O)[C@@H](C)O | 1.54
CC[C@H](C)[C@H](NC(=O)CNC(=O)[C@@H](NC(=O)[C@H](Cc1ccccc1)NC(=O)[C@H](CCCCN)NC(=O)[C@H](CO)NC(=O)[C@H](CC(N)=O)NC(=O)[C@H](C)NC(=O)[C@H](CCCCN)NC(=O)[C@@H](NC(=O)[C@H](Cc1ccc(O)cc1)NC(=O)[C@@H](N)CCC(N)=O)[C@@H](C)CC)[C@@H](C)CC)C(=O)N[C@H](C(=O)N[C@@H](CCC(=O)O)C(=O)O)[C@@H](C)O [Clostridium tetanus] | > 5
CC[C@H](C)[C@H](NC(=O)[C@H](CCC(=O)O)NC(=O)[C@H](C)NC(=O)[C@H](CCCCN)NC(=O)[C@H](CC(C)C)NC(=O)[C@@H]1CCCN1)C(=O)N[C@@H](C)C(=O)N[C@@H](CCC(N)=O)C(=O)N[C@@H](CCCNC(=N)N)C(=O)N[C@@H](CC(C)C)C(=O)N[C@@H](CCC(=O)O)C(=O)N[C@@H](CC(=O)O)C(=O)N[C@H](C(=O)O)C(C)C [Influenza] | > 5
CC[C@H](C)[C@H](NC(=O)[C@H](C)NC(=O)[C@@H](NC(=O)[C@H](CCSC)NC(=O)[C@@H](N)CCCNC(=N)N)[C@@H](C)CC)C(=O)N[C@@H](CO)C(=O)N[C@@H](C)C(=O)N[C@@H](CCCCN)C(=O)N[C@H](C(=O)O)C(C)C [Pox.o42.con.im. A2] | > 5
CC[C@H](C)[C@H](NC(=O)[C@H](CCCCN)NC(=O)[C@H](CCCCN)NC(=O)[C@H](CC(C)C)NC(=O)[C@H](CC(C)C)NC(=O)[C@@H](NC(=O)[C@@H](N)Cc1ccc(O)cc1)[C@@H](C)CC)C(=O)N[C@@H](CC(C)C)C(=O)N[C@@H](CO)C(=O)N[C@@H](CO)C(=O)N[C@@H](CCCNC(=N)N)C(=O)N[C@@H](Cc1ccccc1)C(=O)N[C@@H](CC(N)=O)C(=O)N[C@@H](CCC(N)=O)C(=O)N[C@@H](CCSC)C(=O)O [Plasmodium Falciparum] | > 5
